# Test results reported in patent publication US5705518A, “Method of activating photosensitive agents” (University of British Columbia, priority 1995, dated 1998).
# Where two headings read alike, the source gives them in different places.
# System: M-1 (murine rhabdomyosarcoma) tumor
# Type: in vivo, DBA/2 mice
# Conditions: for tumor eradication / tumor palpability: light 15 min post injection
# Method: BPD-MA was synthesized as described in U.S. Pat. No. 4,920,143 and 4,883,790, incorporated herein by reference. BPD-MA was obtained from QuadraLogic Technologies, Inc. and stored dissolved in DMSO (4.5 mg/ml) at -70° C. Liposomal BPD (4.95 mg/ml) was prepared as described in U.S. application Ser. No. 07/832,542, filed Feb. 5, 1992. The following formula was used: […]
# Liposomal BPD was dried and stored frozen at -20° C. in 1 ml aliquots. The appropriate number of aliquots were thawed immediately before use and diluted with 5% dextrose in water for injection into the animals.
# Male DBA/2 mice (7-11 weeks old; Charles River Laboratories, St. Constant, Quebec, Canada) were used in these studies, unless otherwise specified. Shaving and depilation removed the hair very effectively from appropriate body surfaces. The mice were shaved and depilated with a commercially available depilator (Nair®) at least one day before being used in the experiments. Following injection the mice were kept in the dark for various lengths of time, as described below. Before and after the experiments the mice were kept in an animal facility with 12 hours of light and 12 hours of dark daily.
# An argon pumped dye laser, whose power source was obtained from Spectra Physics (Series 2000, Mountain View, Calif.) and whose 5W argon ion pumped dye laser was obtained from Coherent (Model 599, Palo Alto, Calif.) was used to deliver a columnated beam of light having a wavelength of 690 (±3) nm. The argon laser was aimed at the skin to irradiate the tumor. The time of light exposure was varied to give different light doses, such as 50, 75 and 100 Joules/cm^2.
# DBA/2 mice (weight 22±1 g) were used in this study. First, mice were injected in the flank with M-1 (murine rhabdomyosarcoma) tumor cells and the tumors were allowed to grow to about 5mm in diameter, according to the protocol of Richter et al., Br. J. Cancer (1991) 63:87-93. Mice were injected with liposomal BPD-MA and kept in the dark for 15 minutes before exposure to light. The mice were then treated with the laser.
# [1] = 0.5 mg/kg BPD-MA, 75 J/cm^2, 24 hours (FIG. 2)
# [2] = 1 mg/kg BPD-MA, 100 J/cm^2, 48 hours (FIG. 1)
substance,measurement,setting,value
benzoporphyrin derivative monoacid ring A [BPD-MA],tumor eradication,[1],the tumor was eradicated
same,tumor palpability,[1],The tumor was not palpable
same,tumor eradication,[2],the tumor was eradicated
same,tumor palpability,[2],The tumor was not palpable
same,tumor regrowth,"both animals (FIGS. 1 and 2), followed two weeks",The tumors did not grow back
same,"skin damage, comparison of FIG. 2 with FIGS. 1 and 3","mouse, in vivo",reduction in skin damage
same,skin healing,"mouse, in vivo","flat, healing area of skin"
